Sequences of proteins named here, by UniProt entry; tags and fusion partners are left off. Residues count along the entry.
UniProt P36888, 563-993: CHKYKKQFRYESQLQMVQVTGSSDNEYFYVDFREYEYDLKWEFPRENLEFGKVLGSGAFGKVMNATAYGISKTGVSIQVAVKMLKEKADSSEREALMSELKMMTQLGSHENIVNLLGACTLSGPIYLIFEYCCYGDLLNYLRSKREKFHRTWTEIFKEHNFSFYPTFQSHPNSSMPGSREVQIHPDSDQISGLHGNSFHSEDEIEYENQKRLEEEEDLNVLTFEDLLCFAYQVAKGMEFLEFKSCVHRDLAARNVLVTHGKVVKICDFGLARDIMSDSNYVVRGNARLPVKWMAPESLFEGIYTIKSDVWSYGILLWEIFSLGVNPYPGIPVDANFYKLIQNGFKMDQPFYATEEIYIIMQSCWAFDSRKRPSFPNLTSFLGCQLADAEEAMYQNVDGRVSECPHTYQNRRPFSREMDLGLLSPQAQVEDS

In patent US8222244B2, “Staurosporine derivatives as inhibitors of FLT3 receptor tyrosine kinase activity” (Novartis AG, priority 2001, dated 2012):

Target: T1, human Flt-3 (Homo sapiens, UniProt P36888)
T1 construct: expresses the amino acid region amino acids 563-993 of the intra-cytoplasmic kinase domains of human Flt-3; made in house; host or cells: Sf9 insect cells (baculovirus, pFbacG01 donor vector)
Experiment: Tyrosine protein kinase assay with purified GST-Flt-3 (33P incorporation)
Type: biochemical
Conditions: at a 1.0 micromolar concentration
Protocol: ATP into appropriate substrates.
The coding sequences for the cytoplasmic domain of Flt-3 was amplified by PCR from human c-DNA libraries (Clontech). The amplified DNA fragments and the pFbacG01 vector were made compatible for ligation by digestion with BamH1 and Hind III. […] The production of the viruses, the expression of proteins in Sf9 cells and the purification of the GST-fused proteins were performed as following:
(Generation of Bac- to Bac GST-fusion vectors); pFbacG01, pFbacGST2T and pFbacGSTx3 Bac-to-Bac™ donor vectors were generated from pAcG1, pAcG2T and pAcG3X respectively, which facilitate the expression of GST-fusion proteins with the possibility of cleavage with thrombin (pFbacGT2) or factor Xa (pFbacGSTx3) while pFbacG01 expresses no proteolytic cleavage site. These were generated in house by isolation of the DNA fragment containing the gene for GST with the C-terminal protease and restriction sites by restriction enzyme digestion of the relevant PharMingen baculovirus donor vector with EcoRV and EcoRI. […]
ATP 0.1 μCi). […] Membranes were counted after drying at ambient temperature, mounting in Packard TopCount 96-well frame, and addition of 10 μL/well of Microscint™ (Packard). […]

Question: How did the “Flt3 Inhibition (percent inhibition of Flt3 kinase activity)” value turn out when `CN[C@@H]1C[C@H]2O[C@@](C)([C@@H]1OC)n1c3ccccc3c3c4c(c5c6ccccc6n2c5c31)C(=O)NC4` [62996-74-1, (9S,10R,11R,13R)-2,3,10,11,12,13-Hexahydro-10-methoxy-9-methyl-11-(methylamino)-9,13-epoxy-1H,9H-diindolo[1,2,3-gh:3′,2′,1′-lm]pyrrolo[3,4-j][1,7]benzodiazonin-1-one, reference compound] was run?
Answer: Its value is 100%.
